Test results: US9492315B2, “Implantable therapeutic device” (ForSight Vision4, Inc., priority 2010, dated 2016)

Tests used:
[1] = Diffusion coefficient in water (measured BSA value scaled by viscosity and molecular weight); format: physicochemical; conditions: 37 C, estimated from the BSA value at 20 C by viscosity and MW scaling
Text: If the reservoir solution is aqueous or has a viscosity similar to water, the value for the diffusion coefficient of the therapeutic agent (TA) in water at the temperature of interest may be used. […] (Molokhia et al, Exp Eye Res 2008): DTA,37C=DBSA,20C(η20C/η37C)(MWBSA/MWTA)^1/3 where MW refers to the molecular weight of either BSA or the test compound and η is the viscosity of water.
Small molecules have a diffusion coefficient similar to fluorescein (MW=330, D=4.8 to 6 e-6 cm^2/s from Stay, M S et al. Pharm Res 2003, 20(1), pp. 96-102). For example, the small molecule may comprise a glucocorticoid such as triamcinolone acetonide having a molecular weight of about 435.

[2] = model proteins of therapeutic interest; cited from earlier work
[3] = in water at 20 C, measured value (Molokhia et al, Exp Eye Res 2008); cited from earlier work

Substance: bovine serum albumin [BSA]
- Diff Coeff [1]: 9.1e-7 cm^2/s
- diameter [2]: 7.2 nm
- Diff Coeff [3]: 6.1e-7 cm^2/s

Where two headings read alike, the source gives them in different places.
